# AlphaSeq binding of Ab-14 heavy chain variants to a spike HR2 peptide

Binding partner: SARS-CoV-2 spike HR2 peptide, sequence PDVDLGDISGINAS.

The variants keep the light chain, the linker and the frameworks of Ab-14 (scFv order VH, a 15-residue (Gly4Ser)3 linker, VL).
VH: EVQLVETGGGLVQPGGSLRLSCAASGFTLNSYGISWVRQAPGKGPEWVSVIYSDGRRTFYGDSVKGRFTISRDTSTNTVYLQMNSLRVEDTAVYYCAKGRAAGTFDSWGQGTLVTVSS
VL: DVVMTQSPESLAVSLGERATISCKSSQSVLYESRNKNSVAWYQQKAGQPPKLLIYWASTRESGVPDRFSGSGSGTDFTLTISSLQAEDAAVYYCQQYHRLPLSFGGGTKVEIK

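The parent was found by panning a naive human phage display library on the peptide. The variants were designed computationally from a first round of random CDR variants and then made and measured. Group labels follow the data file (Ctrl: baseline library sampled from a position-specific scoring matrix, with some repeated check sequences; Rand: our label for a block that the file lists under HC and that is probably the random mutants of the ten best first-round binders; GP: Gaussian process model; GPLM: also part of the Gaussian process libraries; HC: hill climbing; Gen: genetic algorithm; Gibbs: Gibbs sampling; a sequence that several methods proposed may carry one label only). The assay is AlphaSeq: two haploid yeast populations carry antibody and antigen on their surface. The frequency of each diploid, read from paired DNA barcodes, reflects how well the two displayed proteins bind. The ratio of observed to expected reads was calibrated, replicate by replicate, on BCL2-family standards whose Kd was known from biolayer interferometry. Each pool was mated in six replicate cultures.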

Each variant's VH is given in full. This list holds designs with at most six substitutions. Values are apparent Kd, the geometric mean of the replicates that gave a signal; lower means stronger binding. Where no diploid with the target was found in any replicate, the entry reads "nd": below detection, most likely a poor binder, though not proof of it. The list is sorted by this average, lowest first, undetected variants last.

With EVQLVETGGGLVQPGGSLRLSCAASGFELNEYGISWVRQAPGKGPEWVSVIYSDGRRTFYDDSVKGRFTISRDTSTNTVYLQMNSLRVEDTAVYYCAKGRAAGTFDSWGQGTLVTVSS [GP_Gen] the result was 520 pM (6 of 6 replicates). The variant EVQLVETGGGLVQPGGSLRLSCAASGFTLNSYGISWVRQAPGKGPEWVSVIYSDGRRTAYADSVKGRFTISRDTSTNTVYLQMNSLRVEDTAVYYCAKGRIAGTFDSWGQGTLVTVSS [Ctrl] gave 740 pM (6 of 6 replicates). For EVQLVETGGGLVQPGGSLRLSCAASGFVLNEYGISWVRQAPGKGPEWVSVIYADGRRTFYGDSVKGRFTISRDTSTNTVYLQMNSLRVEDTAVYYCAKGKAAGTFDSWGQGTLVTVSS [GP_HC], the assay gave 810 pM (6 of 6 replicates). For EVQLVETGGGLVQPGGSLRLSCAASGFSLNEYGISWVRQAPGKGPEWVSVIYSDGRRTFYGDSVKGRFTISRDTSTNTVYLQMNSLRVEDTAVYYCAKGRTAGTFDIWGQGTLVTVSS [GP_Gibbs], the assay gave 1.5 nM (6 of 6 replicates). The variant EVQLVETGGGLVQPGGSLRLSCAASGFTLESYGISWVRQAPGKGPEWVSVIYADGRRTFYGDSVKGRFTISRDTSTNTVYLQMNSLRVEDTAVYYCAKGRVAGTFDSWGQGTLVTVSS [GPLM_Gen] showed 1.7 nM (5 of 6 replicates). With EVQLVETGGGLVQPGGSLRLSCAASGFTLNSYGISWVRQAPGKGPEWVSVIYSDGRRTFYADSVKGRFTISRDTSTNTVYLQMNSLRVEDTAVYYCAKGHAAGTFDTWGQGTLVTVSS [GPLM_Gibbs] the result was 2.3 nM (6 of 6 replicates). With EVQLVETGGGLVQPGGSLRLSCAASGFTLNSYGISWVRQAPGKGPEWVSVIYSDGRRTFYDDSVKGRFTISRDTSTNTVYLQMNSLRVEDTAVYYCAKGLNAGTFDSWGQGTLVTVSS [GP_HC] the result was 3.6 nM (4 of 6 replicates).

The variant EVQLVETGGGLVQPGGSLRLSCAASGFSLNEYGISWVRQAPGKGPEWVSVIYSDGRRTFYGDSVKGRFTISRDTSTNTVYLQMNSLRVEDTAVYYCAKGLAAGTFDRWGQGTLVTVSS [GP_HC] showed 4.1 nM (6 of 6 replicates). The variant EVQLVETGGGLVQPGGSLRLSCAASGFTLNEYGISWVRQAPGKGPEWVSVIYSDGRRTFYYDSVKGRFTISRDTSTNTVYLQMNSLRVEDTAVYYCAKGRQAGTFDSWGQGTLVTVSS [GPLM_HC] showed 5.9 nM (1 of 6 replicates). With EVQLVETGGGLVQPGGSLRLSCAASGFQLDSYGISWVRQAPGKGPEWVSVIYSDGRRTFYGDSVKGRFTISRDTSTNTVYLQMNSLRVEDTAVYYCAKGRAAGTFDSWGQGTLVTVSS [GPLM_HC] the result was 8.9 nM (5 of 6 replicates). The variant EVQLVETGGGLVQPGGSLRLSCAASGFTLNSYGISWVRQAPGKGPEWVSVIYSDGRRTMYSDSVKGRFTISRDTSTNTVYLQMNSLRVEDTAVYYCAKGRAAGTFDSWGQGTLVTVSS [GPLM_HC] showed 27 nM (5 of 6 replicates). The variant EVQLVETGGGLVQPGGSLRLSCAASGFILNEYGISWVRQAPGKGPEWVSVIYSDGRRTVYTDSVKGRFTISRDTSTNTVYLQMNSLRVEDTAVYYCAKGRFAGTFDSWGQGTLVTVSS [Rand] showed 39 nM (1 of 6 replicates). The variant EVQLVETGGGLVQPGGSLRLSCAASGFRLNSYGISWVRQAPGKGPEWVSVIYSDGRRTFYGDSVKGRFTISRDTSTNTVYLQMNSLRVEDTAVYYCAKGFAAGTFDSWGQGTLVTVSS [Ctrl] gave 95 nM (1 of 6 replicates). With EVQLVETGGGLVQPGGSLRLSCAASGFWLNDYGISWVRQAPGKGPEWVSVIYSDGRRTFYGDSVKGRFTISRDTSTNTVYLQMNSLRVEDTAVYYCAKGKAAGTFDSWGQGTLVTVSS [GP_HC] the result was 110 nM (1 of 6 replicates).

With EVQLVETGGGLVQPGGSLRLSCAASHFDLNSYGISWVRQAPGKGPEWVSVIYSDGRRTFYCDSVKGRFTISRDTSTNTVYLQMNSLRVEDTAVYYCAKGRTAGTFDSWGQGTLVTVSS [GP_Gen] the result was 150 nM (5 of 6 replicates). For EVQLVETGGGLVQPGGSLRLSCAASGFTLNSPGISWVRQAPGKGPEWVSVIYADGRRTFYGDSVKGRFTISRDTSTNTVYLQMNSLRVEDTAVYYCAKARAAGTNKSWGQGTLVTVSS [Rand], the assay gave 210 nM (1 of 6 replicates). For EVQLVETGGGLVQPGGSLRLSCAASGFNLNSYGISWVRQAPGKGPEWVSVIIADGRRTFYGDSVKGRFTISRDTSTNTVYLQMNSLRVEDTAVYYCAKGRAAGTGSSWGQGTLVTVSS [Ctrl], the assay gave nd (0 of 6 replicates). For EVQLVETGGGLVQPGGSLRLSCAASGFTLNSYGISWVRQAPGKGPEWVSVIYADGRRTFYGDSVKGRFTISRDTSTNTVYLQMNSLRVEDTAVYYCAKGRAAGYGDSWGQGTLVTVSS [Ctrl], the assay gave nd (0 of 6 replicates). For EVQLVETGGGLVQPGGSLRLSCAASGFDLNSYGISWVRQAPGKGPEWVSVIYSDGRRTKYGDSVKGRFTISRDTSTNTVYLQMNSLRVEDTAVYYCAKGRAAGWFNSWGQGTLVTVSS [Rand], the assay gave nd (0 of 6 replicates). For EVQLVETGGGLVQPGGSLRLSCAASGETLNSYSISWVRQAPGKGPEWVSVIYSDGRRTFYEDSVKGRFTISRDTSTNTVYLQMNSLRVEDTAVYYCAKGNAAGTFDSWGQGTLVTVSS [Ctrl], the assay gave nd (0 of 6 replicates).

2 of these entries, quoted again:

{"VH": "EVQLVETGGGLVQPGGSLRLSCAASGFTLNSYGISWVRQAPGKGPEWVSVIYSDGRRTAYADSVKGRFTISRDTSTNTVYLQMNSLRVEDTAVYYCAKGRIAGTFDSWGQGTLVTVSS", "group": "Ctrl", "Kd (apparent)": "740 pM", "seen in": "6 of 6"}
{"VH": "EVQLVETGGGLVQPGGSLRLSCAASGFWLNDYGISWVRQAPGKGPEWVSVIYSDGRRTFYGDSVKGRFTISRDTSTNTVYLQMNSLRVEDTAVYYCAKGKAAGTFDSWGQGTLVTVSS", "group": "GP_HC", "Kd (apparent)": "110 nM", "seen in": "1 of 6"}

As a blank, each scFv also met three strains without target: over all heavy chain designs, 1% of these pairings were detected, typically at 120 nM and seldom below 7.0 nM. Values of this round are not directly comparable with the first-round values of the same sequences. In the paper, a design with two or fewer of six values counts as a poor binder.

Data: MIT Lincoln Laboratory AlphaSeq set, Li et al. 2023, doi:10.1038/s41467-023-39022-2, as distributed in FLAb.